These compounds were tested against Sterol O-acyltransferase 1 (Rattus norvegicus, UniProt O70536).

The chains behind the UniProt entries cited, without tags or fusion partners. Where a name states a change or a piece, a line headed by the entry shows the natural chain unless it says otherwise.
UniProt O70536: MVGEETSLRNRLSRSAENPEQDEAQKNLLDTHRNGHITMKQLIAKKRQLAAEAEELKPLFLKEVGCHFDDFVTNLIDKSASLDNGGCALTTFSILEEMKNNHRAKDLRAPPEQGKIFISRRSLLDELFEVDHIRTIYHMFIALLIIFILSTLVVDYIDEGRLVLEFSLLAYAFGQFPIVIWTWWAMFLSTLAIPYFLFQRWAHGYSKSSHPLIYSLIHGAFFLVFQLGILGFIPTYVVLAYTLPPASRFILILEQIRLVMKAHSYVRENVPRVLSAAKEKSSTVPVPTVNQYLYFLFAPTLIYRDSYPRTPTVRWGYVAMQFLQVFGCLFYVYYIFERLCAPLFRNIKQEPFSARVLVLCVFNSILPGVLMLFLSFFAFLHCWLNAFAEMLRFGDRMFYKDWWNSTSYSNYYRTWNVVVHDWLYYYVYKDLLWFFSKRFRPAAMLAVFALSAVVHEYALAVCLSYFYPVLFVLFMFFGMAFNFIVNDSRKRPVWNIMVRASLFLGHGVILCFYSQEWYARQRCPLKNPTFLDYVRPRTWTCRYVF

In order of rising IC50:
1. CC[C@@]1(CCCc2ccccc2)C(=O)N(c2c(OC)cc(OC)cc2OC)[C@@H]1c1ccccc1  1.7 µM
2. COc1ccc(N2C(=O)[C@@](C(=O)Cc3ccccc3)(c3ccccc3)[C@H]2c2ccccc2)cc1  7.5 µM
3. CC[C@]1(CCCc2ccccc2)C(=O)N(c2c(OC)cc(OC)cc2OC)[C@@H]1c1ccccc1  12 µM

— ChEMBL document CHEMBL1127536, “2-Azetidinones as inhibitors of cholesterol absorption” (J Med Chem, 1994)
